Laboratory results: PubChem BioAssay AID696 (Sanford-Burnham Center for Chemical Genomics, 2007)
Only a part is listed here, and it is no random draw. Activity calls are given as the source filed them. Rule as the data show it: active = activation fold above about 2; inactive = the rest.

Protein sequences, listed by entry. Tags and fused reporters are not part of them.
UniProt P05187, whole entry: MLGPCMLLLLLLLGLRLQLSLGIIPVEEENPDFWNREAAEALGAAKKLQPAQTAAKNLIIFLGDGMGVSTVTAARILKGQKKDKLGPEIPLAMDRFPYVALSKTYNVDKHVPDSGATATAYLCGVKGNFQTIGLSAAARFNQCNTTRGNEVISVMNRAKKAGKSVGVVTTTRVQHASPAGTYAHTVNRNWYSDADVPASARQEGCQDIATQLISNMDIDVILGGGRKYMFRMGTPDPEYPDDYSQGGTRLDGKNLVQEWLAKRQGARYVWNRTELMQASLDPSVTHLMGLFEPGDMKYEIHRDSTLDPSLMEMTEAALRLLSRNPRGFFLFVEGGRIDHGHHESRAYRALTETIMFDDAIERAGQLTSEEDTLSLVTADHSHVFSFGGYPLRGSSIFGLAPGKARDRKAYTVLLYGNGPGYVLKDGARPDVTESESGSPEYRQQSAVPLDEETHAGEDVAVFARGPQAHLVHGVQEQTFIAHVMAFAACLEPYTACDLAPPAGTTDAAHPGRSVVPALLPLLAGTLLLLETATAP

The molecules below were run against Alkaline phosphatase, placental type (Homo sapiens) (UniProt P05187) (assay: PLAP enzyme activators, biochemical, luminescence, HTS (AID 696)). Conditions: purified PLAP enzyme, luminescent substrate read-out; at 20 µM; stronger effect = higher value.
For `O=C(NCC1(N2CCOCC2)CCCCC1)c1cc2ccccc2o1`, the activation fold was inactive: 1. In the case of `O=C(OC1CN2CCC1CC2)C1c2ccccc2Oc2ccccc21` (stereo not given), the activation fold is reported as inactive: 1.3. With `COc1ccc(NC2CCN(CCc3ccccc3)CC2)c(OC)c1` the activation fold was inactive: 1.6. With `N#CC1(Nc2ccccc2)CCN(CCc2ccccc2)CC1` the activation fold was inactive: 1.2. `O=C(NCC1(N2CCOCC2)CCCCC1)c1cc(=O)[nH]c2ccccc12` was tested, and the activation fold was inactive: 1.4. For `N/C(=N\O)c1c(N)no[n+]1[O-]`, the activation fold was inactive: 0.9. With `c1ccc(CN2CCC(Nc3ccccc3)CC2)cc1` the activation fold was inactive: 1.7. In the case of `Fc1ccccc1NC1CCN(Cc2ccccc2)CC1`, the activation fold is reported as inactive: 1.6. `CCOc1ncccc1C(=O)NCC1(N2CCOCC2)CCCCC1` was tested, and the activation fold was inactive: 1.4. In the case of `CCC(CO)(C(=O)OC1CN2CCC1CC2)c1ccccc1` (stereo not given), the activation fold is reported as inactive: 1.1.
